Where two headings read alike, the source gives them in different places.
System: SARS-CoV-2
Assay type: cell-based
Settings: nine-point dilution series from 25 μM to 100 nM

| SMILES | anti-SARS-CoV-2 response (viral load reduction) in Huh7 cells | other results |
| --- | --- | --- |
| CC(=O)OC[C@H]1O[C@@H]([S-])[C@H](OC(C)=O)[C@@H](OC(C)=O)[C@@H]1OC(C)=O.CCP(CC)CC.[Au+] [auranofin] |  | anti-SARS-CoV-2 response (viral load reduction) in Huh7 cells (listed as Auranofin): able to reduce the viral load |
| CN1CCCC(n2nc(Cc3ccc(Cl)cc3)c3ccccc3c2=O)CC1 (centres unmarked) [azelastine] | very strong anti-SARS-CoV-2 response | anti-SARS-CoV-2 response (viral load reduction) in Huh7 cells (listed as Azelastine): able to reduce the viral load |
| CC[C@]1(O)C[C@@H]2CN(CCc3c([nH]c4ccccc34)[C@@](C(=O)OC)(c3cc4c(cc3OC)N(C)[C@H]3[C@@](O)(C(=O)OC)[C@H](OC(C)=O)[C@]5(CC)C=CCN6CC[C@]43[C@@H]65)C2)C1 [vinblastine] | very strong anti-SARS-CoV-2 response | anti-SARS-CoV-2 response (viral load reduction) in Huh7 cells (listed as Vinblastine): able to reduce the viral load |
| CN(Cc1cnc2nc(N)nc(N)c2n1)c1ccc(C(=O)N[C@@H](CCC(=O)O)C(=O)O)cc1 [methotrexate] | able to reduce the viral load |  |
| C[C@H]1O[C@@H](O[C@H]2[C@@H](O)C[C@H](O[C@H]3[C@@H](O)C[C@H](O[C@H]4CC[C@@]5(C)[C@H](CC[C@@H]6[C@@H]5C[C@@H](O)[C@]5(C)[C@@H](C7=CC(=O)OC7)CC[C@]65O)C4)O[C@@H]3C)O[C@@H]2C)C[C@H](O)[C@@H]1O [digoxin] | very strong anti-SARS-CoV-2 response | anti-SARS-CoV-2 response (viral load reduction) in Huh7 cells (listed as Digoxin): able to reduce the viral load |

Reference: patent US12670969B2, “Network medicine framework for identifying drug repurposing opportunities” (Northeastern University, priority 2020, dated 2026)
